{
  "sequences": {"note": "By UniProt entry, the sequences of proteins in these tests, tags left out.", "UniProt P21453, whole entry": "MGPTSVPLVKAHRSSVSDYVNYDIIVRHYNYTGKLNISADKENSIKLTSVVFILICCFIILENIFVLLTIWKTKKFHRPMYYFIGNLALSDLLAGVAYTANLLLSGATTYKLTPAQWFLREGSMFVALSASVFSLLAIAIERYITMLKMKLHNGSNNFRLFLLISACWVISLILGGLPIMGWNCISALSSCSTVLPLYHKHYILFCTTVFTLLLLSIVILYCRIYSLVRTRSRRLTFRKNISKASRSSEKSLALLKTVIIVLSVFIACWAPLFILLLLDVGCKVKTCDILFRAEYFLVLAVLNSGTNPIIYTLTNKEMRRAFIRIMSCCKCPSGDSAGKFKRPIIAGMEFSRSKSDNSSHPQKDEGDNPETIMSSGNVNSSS"},
  "source": "patent EP4567034A1",
  "about": "(Korea Institute of Science and Technology, priority 2022, dated 2024)",
  "key": {"[1]": {"biological_target": "T1, S1P1 receptor (Homo sapiens, UniProt P21453)", "assay": "S1P1 β-arrestin recruitment assay in S1P1 overexpressing cell line (DiscoverX), luminescence", "assay_type": "cell-based"}, "[2]": {"biological_target": "T1, S1P1 receptor", "assay": "S1P1 receptor internalization (endosome formation) assay in S1P1 overexpressing cell line (DiscoverX), luminescence", "assay_type": "cell-based"}},
  "data": [
    {"smiles": "CC(C)(C)c1ccc(-c2ncc(-c3ccc(CN4CC(C(=O)O)C4)cc3)[se]2)cc1", "note": "[Compound 2, Sodium 1-(4-(2-(4-tert-butylphenyl)-1,3-selenazole-5-yl)benzyl)azetidine-3-carboxylate]", "values": [
      {"measurement": "EC50", "setting": "[1]", "value": 2.12, "unit": "nM"},
      {"measurement": "EC50", "setting": "[2]", "value": 2.2, "unit": "nM"}
    ]},
    {"smiles": "CC(C)Oc1ccc(-c2ncc(-c3ccc(CN4CC(C(=O)O)C4)cc3)[se]2)cc1Cl", "note": "[Compound 13, Sodium 1-(4-(2-(3-chloro-4-isopropoxyphenyl)-1,3-selenazole-5-yl)benzyl)azetidine-3-carboxylate]", "values": [
      {"measurement": "EC50", "setting": "[1]", "value": 0.22, "unit": "nM"},
      {"measurement": "EC50", "setting": "[2]", "value": 0.049, "unit": "nM"}
    ]},
    {"smiles": "CCOc1ccc(-c2ncc(-c3ccc(CN4CC(C(=O)O)C4)cc3)[se]2)cc1Cl", "note": "[Compound 15, Sodium 1-(4-(2-(3-chloro-4-ethoxyphenyl)-1,3-selenazole-5-yl)benzyl)azetidine-3-carboxylate]", "values": [
      {"measurement": "EC50", "setting": "[1]", "value": 0.54, "unit": "nM"},
      {"measurement": "EC50", "setting": "[2]", "value": 0.27, "unit": "nM"}
    ]},
    {"smiles": "CC(C)(C)c1ccc(-c2ncc(-c3ccc(CN4CCC(C(=O)O)C4)cc3)[se]2)cc1", "note": "(stereo not drawn) [Compound 31, Sodium 1-(4-(2-(4-tert-butylphenyl)-1,3-selenazole-5-yl)benzyl)pyrrolidine-3-carboxylate]", "values": [
      {"measurement": "EC50", "setting": "[1]", "value": 2.59, "unit": "nM"},
      {"measurement": "EC50", "setting": "[2]", "value": 4.21, "unit": "nM"}
    ]},
    {"smiles": "CC(C)Oc1ccc(-c2ncc(-c3ccc(CN4CCC(C(=O)O)C4)cc3)[se]2)cc1Cl", "note": "(stereo not drawn) [Compound 34, Sodium 1-(4-(2-(3-chloro-4-isopropoxyphenyl)-1,3-selenazole-5-yl)benzyl)pyrrolidine-3-carboxylate]", "values": [
      {"measurement": "EC50", "setting": "[1]", "value": 1.08, "unit": "nM"},
      {"measurement": "EC50", "setting": "[2]", "value": 0.58, "unit": "nM"}
    ]},
    {"smiles": "CC(C)Oc1ccc(-c2ncc(-c3ccc(CNCC(=O)O)cc3)[se]2)cc1Cl", "note": "[Compound 36, Sodium 2-(4-(2-(3-chloro-4-isopropoxyphenyl)-1,3-selenazole-5-yl)benzylamino)acetate]", "values": [
      {"measurement": "EC50", "setting": "[1]", "value": 2.03, "unit": "nM"},
      {"measurement": "EC50", "setting": "[2]", "value": 2.62, "unit": "nM"}
    ]},
    {"smiles": "CC(C)Oc1ccc(-c2ncc(-c3ccc(CNCCC(=O)O)cc3)[se]2)cc1Cl", "note": "[Compound 38, Sodium 3-(4-(2-(3-chloro-4-isopropoxyphenyl)-1,3-selenazole-5-yl)benzylamino)propanoate]", "values": [
      {"measurement": "EC50", "setting": "[1]", "value": 0.58, "unit": "nM"},
      {"measurement": "EC50", "setting": "[2]", "value": 0.14, "unit": "nM"}
    ]},
    {"smiles": "CC(C)(C)c1ccc(-c2cnc(-c3ccc(CN4CC(C(=O)O)C4)cc3)[se]2)cc1", "note": "[Compound 40, Sodium 1-(4-(5-(4-tert-butylphenyl)-1,3-selenazole-2-yl)benzyl)azetidine-3-carboxylate]", "values": [
      {"measurement": "EC50", "setting": "[1]", "value": 10.6, "unit": "nM"},
      {"measurement": "EC50", "setting": "[2]", "value": 23.1, "unit": "nM"}
    ]},
    {"smiles": "CC(C)Oc1ccc(-c2cnc(-c3ccc(CN4CC(C(=O)O)C4)cc3)[se]2)cc1Cl", "note": "[Compound 42, Sodium 1-(4-(5-(3-chloro-4-isopropoxyphenyl)-1,3-selenazole-2-yl)benzyl)azetidine-3-carboxylate]", "values": [
      {"measurement": "EC50", "setting": "[1]", "value": 0.81, "unit": "nM"},
      {"measurement": "EC50", "setting": "[2]", "value": 0.37, "unit": "nM"}
    ]}
  ]
}
